Protein sequences, listed by entry. Tags and fused reporters are not part of them. Lines headed by an entry give the natural chain unless they say otherwise; changes in a name come on top.
UniProt P11509: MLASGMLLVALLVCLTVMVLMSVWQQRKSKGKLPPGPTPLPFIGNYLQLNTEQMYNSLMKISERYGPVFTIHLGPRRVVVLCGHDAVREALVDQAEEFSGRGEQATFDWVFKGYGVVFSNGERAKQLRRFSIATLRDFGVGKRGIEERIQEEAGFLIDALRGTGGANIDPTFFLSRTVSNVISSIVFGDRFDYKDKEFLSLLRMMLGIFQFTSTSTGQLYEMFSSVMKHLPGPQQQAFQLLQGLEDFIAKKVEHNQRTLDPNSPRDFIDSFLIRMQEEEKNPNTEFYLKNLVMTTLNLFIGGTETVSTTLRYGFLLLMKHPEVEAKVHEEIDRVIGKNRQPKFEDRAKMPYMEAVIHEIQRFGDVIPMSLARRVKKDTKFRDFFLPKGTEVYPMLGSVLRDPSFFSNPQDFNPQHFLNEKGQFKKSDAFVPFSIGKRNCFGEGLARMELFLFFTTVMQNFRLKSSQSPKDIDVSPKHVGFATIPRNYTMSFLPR
UniProt Q16696: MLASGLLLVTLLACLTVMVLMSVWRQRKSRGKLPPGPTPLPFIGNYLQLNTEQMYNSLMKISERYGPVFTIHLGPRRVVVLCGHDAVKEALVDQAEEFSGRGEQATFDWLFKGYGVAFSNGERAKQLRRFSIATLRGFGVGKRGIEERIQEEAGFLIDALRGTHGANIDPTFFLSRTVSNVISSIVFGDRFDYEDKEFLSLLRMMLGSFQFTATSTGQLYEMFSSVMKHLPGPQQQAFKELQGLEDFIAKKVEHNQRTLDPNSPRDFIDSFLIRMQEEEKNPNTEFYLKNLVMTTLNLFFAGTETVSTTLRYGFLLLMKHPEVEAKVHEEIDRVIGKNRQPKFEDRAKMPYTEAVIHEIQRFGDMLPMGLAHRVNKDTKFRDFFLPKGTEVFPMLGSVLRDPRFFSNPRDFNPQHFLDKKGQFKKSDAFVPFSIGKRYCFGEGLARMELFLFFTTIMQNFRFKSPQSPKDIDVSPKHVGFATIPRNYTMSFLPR
UniProt P20813: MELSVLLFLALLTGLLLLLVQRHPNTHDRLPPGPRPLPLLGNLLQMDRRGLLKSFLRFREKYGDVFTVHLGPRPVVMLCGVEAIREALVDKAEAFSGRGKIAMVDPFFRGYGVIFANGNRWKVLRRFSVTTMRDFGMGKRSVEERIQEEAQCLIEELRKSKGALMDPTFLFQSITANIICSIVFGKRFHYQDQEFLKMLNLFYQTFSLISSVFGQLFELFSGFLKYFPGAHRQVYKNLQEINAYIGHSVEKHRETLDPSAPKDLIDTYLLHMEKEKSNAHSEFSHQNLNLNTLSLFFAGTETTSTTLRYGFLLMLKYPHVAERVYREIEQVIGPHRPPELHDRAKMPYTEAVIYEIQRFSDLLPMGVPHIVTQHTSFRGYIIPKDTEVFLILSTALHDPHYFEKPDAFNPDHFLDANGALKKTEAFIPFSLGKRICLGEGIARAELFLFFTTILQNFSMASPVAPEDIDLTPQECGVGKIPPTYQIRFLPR
UniProt P08684, whole entry: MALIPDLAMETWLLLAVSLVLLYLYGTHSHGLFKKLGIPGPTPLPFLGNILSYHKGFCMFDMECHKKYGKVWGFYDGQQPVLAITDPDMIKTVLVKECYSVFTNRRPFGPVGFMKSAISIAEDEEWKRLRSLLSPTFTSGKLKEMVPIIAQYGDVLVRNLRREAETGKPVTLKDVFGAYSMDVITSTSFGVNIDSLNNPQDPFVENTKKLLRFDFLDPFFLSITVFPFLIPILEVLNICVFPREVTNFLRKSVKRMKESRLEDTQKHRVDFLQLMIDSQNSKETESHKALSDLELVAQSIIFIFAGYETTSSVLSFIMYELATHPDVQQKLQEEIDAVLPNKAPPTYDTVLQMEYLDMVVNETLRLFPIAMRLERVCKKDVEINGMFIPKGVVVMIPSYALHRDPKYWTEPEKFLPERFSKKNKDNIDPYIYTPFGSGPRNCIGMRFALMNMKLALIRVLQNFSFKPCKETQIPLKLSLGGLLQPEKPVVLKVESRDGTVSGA

According to patent US8609708B2 (Human BioMolecular Research Institute, priority 2003, dated 2013):

What was measured:
human CYP2A6 = human CYP2A6 (Homo sapiens (Human), UniProt P11509)
CYP2A13 = CYP2A13 (Homo sapiens (Human), UniProt Q16696); assay: in vitro
CYP2B6 = CYP2B6 (Homo sapiens (Human), UniProt P20813); assay: CYP2B6 Vivid blue substrate O-dealkylation inhibition; type: biochemical; conditions: insect cell microsomes expressing CYP2B6, 0.2M potassium phosphate buffer; mean of at least 3 determinations ± SD; read-out: IC50 ± SD 2B6
CYP3A4 = CYP3A4 (Homo sapiens (Human), UniProt P08684); conditions: microsomes, pH 7.5
Method: To gain insight into the selectivity of the synthetic compounds, nicotine, nicotine related alkaloids and nicotine metabolites for inhibition of other CYPs, we examined the major CYP present in human liver (i.e., CYP 3A4). […] A typical incubation mixture ([…] ), 0.5 mM NADP^+, 2.0 mM G6P, 1 U of G6P dehydrogenase, […] inhibitor was added last as to minimize interaction with the protein. After mixing on ice, the reaction was initiated by the addition of substrate and incubated at 37° C. with shaking in air. Organic extracts were injected onto a Hitachi L-7100 system equipped with a Hitachi L-7400 UV detector. Separations were done with an Altex Ultrasphere ODS (4.6 mm×250 mm, 5 μm) column. The analytes were eluted with an isocratic solvent system consisting of water/acetonitrile/methanol (30:10:60, v/v/v) at a flow rate of 1.0 mL/min. […] Quantification of substrate and metabolite was determined from peak areas of the chromatogram and comparison with standard curves. IC50 values were determined as described below.
To measure CYP3A4 activity, testosterone 6-hydroxylation was determined.

`CN(C)Cc1ccc(-c2cccnc2)o1` [Compound 43, N,N-Dimethyl(5-(pyridin-3-yl)furan-2-yl)methanamine] was tested, and the Ki (human CYP2A6) was 47.2 ± 3.1 µM.
With `Cc1cscc1-c1cccnc1` [TD-I-103] the inhibition at 1 µM (CYP2A13) was 0%.
With `Cc1ccsc1-c1ccc(F)nc1` [TD-II-077] the inhibition at 1 µM (CYP2A13) was 30%.
Work on `c1cncc(-c2c[nH]cn2)c1` [TD-I-125] yielded an inhibition at 1 µM (CYP2A13) of 7%.
`c1cncc(-c2cccnc2)c1` [Compound 31, 3-(Pyridin-3-yl)pyridine] gave an IC50 (CYP2B6) of 145 ± 11 µM.
`Cc1cscc1-c1ccc(F)nc1` [Compound 21, 2-Fluoro-5-(4-methylthiophen-3-yl)pyridine] showed an IC50 (CYP3A4) of 39.1 ± 12.8 µM.
`OCc1ccc(-c2cccnc2)o1` [Compound 45, (5-(Pyridin-3-yl)furan-2-yl)methanol] was tested, and the Ki (human CYP2A6) was 35.2 ± 16.7 µM.
